{"source": "patent US20240157166A1", "about": "“ALTERNATING MAGNETIC FIELDS AND ANTIBIOTICS TO ERADICATE BIOFILM ON METAL IN A SYNERGISTIC FASHION” (priority 2021, published 2024)", "system": "P. aeruginosa (PAO1) biofilm", "assay": "Biofilm CFU on rings, antibiotic with or without iAMF, PAO1", "format": "cell-based", "protocol": "Biofilm preparation, treatment and quantification.\nDoses were delivered at 0 and 12 hours and ring biofilm burden was quantified at various time points as above. For S. aureus experiments, biofilm of UAMS1 were prepared on stainless steel rings according to the culturing protocol and incubated with 2 μg/mL of ceftriaxone or 2 μg/mL of linezolid, in 10 mL TSB media. […] Doses were delivered at 0 and 12 hours and biofilm burden was quantified at 24 hours."}
{"smiles": "O=C(O)c1cn(C2CC2)c2cc(N3CCNCC3)c(F)cc2c1=O", "note": "[ciprofloxacin]", "values": [{"measurement": "reduction in biofilm (CFU)", "setting": "iAMF (Tmax 50, 65 or 80 °C, doses at 0 and 12 h) combined with 0.5 ug/ml ciprofloxacin, 24 h", "result": "down to the limit of detection"}, {"measurement": "magnitude of biofilm reduction, 7-day versus 2-day biofilm", "setting": "iAMF (Tmax=65 °C, 15 min per dose) and 0.5 μg mL-1 ciprofloxacin", "result": "no significant difference"}, {"measurement": "biofilm CFU, iAMF and ciprofloxacin compared to ciprofloxacin alone", "setting": "plastic rings, iAMF Tmax=65 °C", "result": "no significant difference"}]}
